# Laboratory results reported in patent US20070203098A1, “Pten Inhibitors” (priority 2004, published 2007).
# Amino acid sequences for entries named in this document (tags omitted).
# UniProt P60484, whole entry: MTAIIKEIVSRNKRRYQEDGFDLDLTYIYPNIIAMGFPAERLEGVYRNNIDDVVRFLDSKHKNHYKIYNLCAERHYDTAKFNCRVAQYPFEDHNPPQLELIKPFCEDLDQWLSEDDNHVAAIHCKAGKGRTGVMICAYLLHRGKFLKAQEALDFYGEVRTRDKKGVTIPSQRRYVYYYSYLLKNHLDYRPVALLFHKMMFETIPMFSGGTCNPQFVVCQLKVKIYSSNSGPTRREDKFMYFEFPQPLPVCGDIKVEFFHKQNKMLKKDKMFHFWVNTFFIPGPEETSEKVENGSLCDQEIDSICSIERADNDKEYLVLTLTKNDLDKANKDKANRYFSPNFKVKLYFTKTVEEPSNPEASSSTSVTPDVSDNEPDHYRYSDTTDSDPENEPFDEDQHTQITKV
# UniProt P18031, whole entry: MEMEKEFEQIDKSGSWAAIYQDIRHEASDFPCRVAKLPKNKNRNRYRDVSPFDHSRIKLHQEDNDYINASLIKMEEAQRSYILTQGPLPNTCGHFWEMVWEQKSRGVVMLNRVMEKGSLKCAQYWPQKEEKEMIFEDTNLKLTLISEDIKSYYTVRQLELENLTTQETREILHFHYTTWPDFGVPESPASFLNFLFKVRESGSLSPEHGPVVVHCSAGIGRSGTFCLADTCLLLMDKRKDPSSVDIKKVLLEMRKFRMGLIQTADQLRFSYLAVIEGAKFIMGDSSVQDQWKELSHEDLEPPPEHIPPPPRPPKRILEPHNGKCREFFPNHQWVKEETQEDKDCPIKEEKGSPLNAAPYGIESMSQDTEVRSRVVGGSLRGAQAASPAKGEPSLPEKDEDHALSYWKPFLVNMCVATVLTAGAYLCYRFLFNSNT
# Like-named read-outs stand apart in the source and are kept apart here. Marks after values point to notes of the source that are not given here.
# Experiments:
# PTEN [1] = biological target: T1, PTEN (Homo sapiens, UniProt P60484); test: PTEN Inhibition Assay: General Screening; assay type: biochemical
# PTEN [2] = biological target: T1, PTEN; test: PTEN Inhibition Assay: IC50 Determinations; assay type: biochemical
# [3] = test system: HBEC (Human Brain Endothelial Cells); test: Wound Healing Assay; assay type: cell-based
# MEF PTEN wt = test: Migration Assay, MEF PTEN wt; assay type: cell-based, mouse; settings: Table 4
# MEF PTEN null = test: Migration Assay, MEF PTEN null; assay type: cell-based, mouse; settings: Table 4
# mouse aortic ring = test: In Vitro Aortic Ring Angiogenesis Assay; assay type: cell-based; settings: 5 μM; 5 days
# PTP1B = PTP1B (Homo sapiens, UniProt P18031); test: PTP1B Inhibition Assay: IC50 Determinations; assay type: biochemical; settings: read-out: PTP1B IC50; Table 29
# [4] = read-out: PTEN Inhibition IC50, Table 1
smiles,measurement,setting,value
COc1cccc(OCC(=O)Nc2ccccc2N)c1,% Inhibition @ 250 uM,PTEN [1]; Table 20,57-96%
same,IC50,"PTEN [2]; read-out: PTEN IC50, Table 29",220000 nM
O=C1C(=O)c2cc(NS(=O)(=O)c3ccccc3)ccc2-c2ccccc21,distance the cells have grown out,"[3]; 10 nM, 2 hrs",0.03667 millimeters
same,distance the cells have grown out,"[3]; 10 nM, 4 hrs",0.05667 millimeters
same,distance the cells have grown out,"[3]; 10 nM, 6 hrs",0.07167 millimeters
same,distance the cells have grown out,"[3]; 10 nM, 24 hrs",0.2133 millimeters
same,distance the cells have grown out,"[3]; 50 nM, 2 hrs",0.03667 millimeters
same,distance the cells have grown out,"[3]; 50 nM, 4 hrs",0.05667 millimeters
same,distance the cells have grown out,"[3]; 50 nM, 6 hrs",0.07667 millimeters
same,distance the cells have grown out,"[3]; 50 nM, 24 hrs",0.2283 millimeters
same,distance the cells have grown out,"[3]; 250 nM, 2 hrs",0.02833 millimeters
same,distance the cells have grown out,"[3]; 250 nM, 4 hrs",0.05333* millimeters
same,distance the cells have grown out,"[3]; 250 nM, 6 hrs",0.075* millimeters
same,distance the cells have grown out,"[3]; 250 nM, 24 hrs",0.2217 millimeters
same,distance the cells have grown out,"[3]; 1000 nM, 2 hrs",0.02333* millimeters
same,distance the cells have grown out,"[3]; 1000 nM, 4 hrs",0.03333* millimeters
same,distance the cells have grown out,"[3]; 1000 nM, 6 hrs",0.07 millimeters
same,distance the cells have grown out,"[3]; 1000 nM, 24 hrs",0.1817* millimeters
same,"HBEC migration across the wound, in words",[3]; relative to no treatment control,migrate faster
same,% Inhibition @ 250 uM,PTEN [1]; Table 26 phenanthrene diones,98.9%
same,"migration number, Average",MEF PTEN wt; 125 uM,28.50
same,"migration number, Average",MEF PTEN wt; 250 uM,17.50
same,IC50,"PTEN [2]; read-out: PTEN IC50, Table 29",221 to 297 nM
same,IC50,PTEN [2]; [4],297 nM
same,"migration number, Average",MEF PTEN null; 125 uM,36.80
same,"migration number, Average",MEF PTEN null; 250 uM,38.10
same,Branch (% of control),mouse aortic ring,94-330 % of control
same,Stem (% of control),mouse aortic ring,100-367 % of control
same,IC50,PTP1B,205 nM
O=C(CCl)Nc1ccc2c(c1)C(=O)C(=O)N2,% Inhibition @ 250 uM,PTEN [1]; Table 27 isatins,1.1%
same,IC50,PTP1B,> 10000 nM
O=C(Nc1ccc2c(c1)C(=O)C(=O)c1ccccc1-2)c1ccc(Br)cc1,% Inhibition @ 250 uM,PTEN [1]; Table 26 phenanthrene diones,96.94%
same,IC50,PTP1B,1000 to 10000 nM
CCOc1cc(C=NNC(=O)c2nnn(-c3nonc3N)c2COc2ccccc2)ccc1OCC(N)=O,% Inhibition at 250 uM,PTEN [1]; Table 14 triazoles,53-85%
same,IC50,"PTEN [2]; read-out: PTEN IC50, Table 29",135000 nM
same,IC50,PTP1B,9500 nM
O=C(Nc1ccc2c(c1)C(=O)C(=O)c1ccccc1-2)c1ccccc1,% Inhibition @ 250 uM,PTEN [1]; Table 26 phenanthrene diones,99.6%
same,IC50,"PTEN [2]; read-out: PTEN IC50, Table 29",292 nM
same,IC50,PTEN [2]; [4],292 nM
same,IC50,PTP1B,558 nM
